This is an account of results in patent US9650336B2, “Mono-fluoro beta-secretase inhibitors” (ASTRAZENECA AB, priority 2011, dated 2017).

Amino acid sequences for entries named in this document (tags omitted). Residues count along the entry.
UniProt P56817, 22-460: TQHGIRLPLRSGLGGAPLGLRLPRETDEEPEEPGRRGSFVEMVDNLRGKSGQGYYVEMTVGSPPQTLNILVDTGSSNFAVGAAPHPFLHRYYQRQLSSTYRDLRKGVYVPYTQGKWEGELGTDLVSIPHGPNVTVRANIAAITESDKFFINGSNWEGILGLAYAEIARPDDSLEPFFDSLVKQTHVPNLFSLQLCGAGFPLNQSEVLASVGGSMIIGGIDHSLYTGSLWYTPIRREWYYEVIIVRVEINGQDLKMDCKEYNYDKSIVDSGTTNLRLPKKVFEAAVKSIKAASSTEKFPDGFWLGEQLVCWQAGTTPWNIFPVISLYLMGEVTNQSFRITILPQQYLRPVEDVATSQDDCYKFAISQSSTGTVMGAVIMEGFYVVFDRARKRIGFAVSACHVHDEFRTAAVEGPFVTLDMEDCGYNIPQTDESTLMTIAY

Molecules are shown by their SMILES.

The experiment addresses human β-secretase (sBACE-Fc, soluble part AA 1-AA 460) (Homo sapiens (Human), UniProt P56817). Put plainly: TR-FRET assay. Format: biochemical. To be noted: TruPoint BACE1 substrate 100 nM, pH 4.5, 15 min at r.t. The protocol: The β-secretase enzyme used in the TR-FRET is prepared as follows:
The cDNA for the soluble part of the human 13-Secretase (AA 1-AA 460) was cloned using the ASP2-Fc10-1-IRES-GFP-neoK mammalian expression vector. The gene was fused to the Fc domain of IgG1 (affinity tag) and stably cloned into HEK 293 cells.
The enzyme (truncated form) was diluted to 6 μg/mL (stock 1.3 mg/mL) and the TruPoint BACE1 Substrate to 200 nM (stock 120 μM) in reaction buffer (NaAcetate, chaps, triton x-100, EDTA pH4.5). The robotic systems Biomek FX and Velocity 11 were used for all liquid handling and the enzyme and substrate solutions were kept on ice until they were placed in the robotic system. Enzyme (9 μL) was added to the plate then 1 μL of compound in dimethylsulphoxide was added, mixed and pre-incubated for 10 minutes. Substrate (10 μL) was then added, mixed and the reaction proceeded for 15 minutes at r.t. The reaction was stopped with the addition of Stop solution (7 μL, NaAcetate, pH 9). The fluorescence of the product was measured on a Victor II plate reader with an excitation wavelength of 340 nm and an emission wavelength of 615 nm. The assay was performed in a Costar 384 well round bottom, low volume, non-binding surface plate (Corning #3676). The final concentration of the enzyme was 2.7 μg/mL; the final concentration of substrate was 100 nM (Km of ˜250 nM). […]

One may read the IC50 as the midpoint of a concentration-inhibition curve. In the case of `[2H]C([2H])([2H])O[C@H]1CC[C@]2(CC1)Cc1ccc(OCCCF)cc1C21C=C(F)C(N)=N1` (single isomer, unassigned) [Example 10, 4″-fluoro-6′-(3-fluoropropoxy)-4-[(2H3)methyloxy]-3′H-dispiro[cyclohexane-1,2′-indene-1′,2″-pyrrol]-5″-amine], the IC50 is 37 nM. The compound `[2H]C([2H])([2H])O[C@H]1CC[C@@]2(CC1)Cc1ccc(OCCCF)cc1C21C=C(F)C(N)=N1` (single isomer, unassigned) [Example 11, 4″-fluoro-6′-(3-fluoropropoxy)-4-[(2H3)methyloxy]-3′H-dispiro[cyclohexane-1,2′-indene-1′,2″-pyrrol]-5″-amine] yielded a half-inhibitory concentration (IC50) of 1220 nM.
